In US20110038796A1, “Method of Nuclear Medical Photography Using Dual-Isotopes” (ATOMIC ENERGY COUNCIL-INSTITUTE OF NUCLEAR ENERGY RESEARCH, priority 2009, published 2011):

Tested on: serotonin transporter
Assay: SPECT with [^123I]ADAM (single-isotope or dual-isotopes), specific uptake ratio in brain regions
Assay type: in vivo, Macaca Cyclopis
Experimental: Please refer to FIG. 1, which is a flow view showing a preferred embodiment according to the present disclosure. As shown in the figure, the present disclosure is a method of nuclear medical photography using dual-isotopes, where effect of using dual isotopes on diagnosing anomalies of dopamine and serotonin in primate's brain is evaluated. The present disclosure comprises the following steps: (a) Obtaining control group 11: A control group is obtained, comprising at least one first individual applied with an imaging agent of single-isotope of [^99mTc]TRODAT-1 for dopamine transporter; at least one second individual applied with an imaging agent of single-isotope of [^123I]ADAM for serotonin transporter; and at least one third individual applied with imaging agents of dual-isotopes of [^99mTc]TRODAT-1 and [^123I]ADAM. Therein, the individuals are non-human primates, like Macaca Cyclopis.
(b) Taking photos for control group 12: Photos of the first to the third individuals in the control group are taken through single photon emission computed tomography (SPECT). Therein, on taking the photo of the first individual applied with the single-isotope of [^99mTc]TRODAT-1, 90 mg/ml of KClO4 is applied to the first individual at first; and, then, after 20 minutes, 740 MBq (20 mCi) of [^99mTc]TRODAT-1 is injected from intravenous. After [^99mTc]TRODAT-1 is injected, a SPECT device equipped with dual-headed gamma cameras (Hawkeye, Millennium VG, General Elecral Medical System, Milwaukee, Wis. USA) coordinated with fan-beam collimators is used to take photos, where 15 dynamic sequence of brain images are taken during 30 minutes (2 min/frame). Therein, an energy window is set between 126 Kev and 154 Kev; data of 128×128 pixel-matrice are fetched; each photo are enlarged for 1.6 times; a photo is taken for each 3° from 360°; and, each of the two detectors is responsible for taking photos for 180°. After data are collected and processed through Metz filter with attenuation calibration, three three-dimensional (3D) photos of coronal, sagittal and transaxial sections are formed. On taking the photo of the second individual applied with the single-isotope of [^123I]ADAM, 185 MBq (5 mCi) of [^123I]ADAM is injected from intravenous; and, an energy window is set between 143 Kev and 175 Kev. On taking the photo of the third individual applied with the dual-isotopes, 90 mg/ml of KClO4 is applied to the […] at first; and, after 20 minutes, 740 MBq (20 mCi) of [^99mTc]TRODAT-1 and 185 MBq (5 mCi) of [^123I]ADAM are injected from intravenous almost simultaneously. Therein, an energy window for [^99mTc]TRODAT-1 is set between 129 Kev and 151 Kev and another energy window for [^123I]ADAM is set between 159 Kev and 175 Kev. […]

## CNCCC(Oc1ccc(C(F)(F)F)cc1)c1ccccc1 (stereo not shown) [fluoxetine]
Frontal cortex, dual-isotopes, pretreated with fluoxetine for 16 hours
  [^123I]ADAM SURs after pretreatment with fluoxetine: no big change
midbrain, striatum and thalamus, dual-isotopes, 180 to 210 minutes after injection, fluoxetine 20 mg/Tab.
  uptake of [^123I]ADAM after pretreatment with fluoxetine: totally blocked
midbrain, thalamus, striatum and frontal cortex, pretreated with fluoxetine for 16 hours
  uptakes and SURs of [^123I]ADAM after pretreatment with fluoxetine (conclusion): blocked
striatum, thalamus and midbrain, dual-isotopes, pretreated with fluoxetine for 16 hours
  [^123I]ADAM SURs after pretreatment with fluoxetine: lowered
